In patent US7893078B2, “Use of cyclopamine in the treatment of basal cell carcinoma and other tumors” (priority 2001, dated 2011):

Legend:
trichoepithelioma = details: human, in vivo
From the text: Trichoepithelioma is another tumor associated with genetic changes that cause increased hedgehog-smoothened signalling (Vorechovsky L. et al. (1997) Cancer Res. 57:4677-4681; Nilsson M. et al. (2000) Proc. Natl. Acad. Sci. USA 97:3438-3443).

cells = details: Taipale J. et al (2000) Nature 406; cited from earlier work
[1] = test system: basal cell carcinoma (BCC); details: human, in vivo
Method: The base cream used is made predominantly of heavy paraffin oil (10% w/w), vaseline (10% w/w), stearyl alcohol (8% w/w), polyoxysteareth-40 (3% w/w) and water (68% w/w), but another suitably formulated base cream is also possible. […] Night-time applications, avoided in this schedule because of possible loss of cream from the patient skin to linens during sleep, can be performed by suitable dermal patches.
Every third hour, about 20 μl cream was applied directly onto the lower half and the upper half was left untreated.
The tumor was then followed up without treatment for a study of the possible late effects. […] For example expression of the cell adhesion molecule CD44 is known to increase upon differentiation of the epidermal basal cells to the upper spinous layer cells (Kooy A J et al (1999) Human Pathology 30:1328-1335).

SMILES: CC1=C2C[C@H]3[C@@H](CC=C4C[C@@H](O)CC[C@@]43C)[C@@H]2CC[C@]12O[C@@H]1C[C@H](C)CN[C@H]1[C@H]2C [Cyclopamine]
- Apoptotic activity among residual tumor cells (trichoepithelioma): marked apoptotic activity
- Effect on the viability of cells (cells): no significant effect
- Retraction of BCC from stroma (arrest of proliferation) [1]: consistently retracted from stroma
